The results in this text go back to published antibiotic growth screens (doi:10.1038/s41589-023-01349-8).

Some of the results follow.

The subject of this experiment is A. baumannii ATCC 17978. The experiment can be described thus: relative growth (fraction of control); higher = less inhibition. The settings on record: 50 µM.
For `COCC(=O)N1C[C@H](C)[C@@H](OC)CN(C)C(=O)c2cc(NC(=O)c3cc(C)on3)ccc2OC[C@H]1C`, the relative growth stood at 1.

For the molecule `CC1(C)C[C@@H]2C(=O)CC[C@H]3O[C@]3(C)CC[C@H]21`, the relative growth was 0.906.

Turning to `COC(=O)/C=C/c1cn([C@H]2OC[C@@H](CO)[C@@H]2O)c(=O)[nH]c1=O`, the relative growth turned out to be 1.07.

The molecule `O=c1[nH]c2ccccc2c(=O)n1CCCO` displayed a relative growth of 0.93.

Molecule `CC1CCN(S(=O)(=O)c2c[nH]cn2)CC1` came in with a relative growth of 0.965.

`C[C@H](CO)N1C[C@H](C)[C@H](CN(C)C(=O)CN2CCOCC2)Oc2cc(C#Cc3cccc(F)c3)ccc2S1(=O)=O` showed a relative growth of 1.04.

On to `Nc1nc(=O)c2c([nH]1)NCC(CNc1ccc(C(=O)N[C@@H](CCC(=O)[O-])C(=O)[O-])cc1)N2C=O.[Ca+2]` (stereo not given in full), for which the relative growth stood at 0.852.

`CN(C)CCCCNC(=O)[C@@H]1C[C@@H]2C(=O)N[C@@H](CCCC[N+](C)(C)C)C(=O)N2[C@@H]1c1ccc(O)cc1` gave a relative growth of 0.963.

As for `O=C1CCC(N2C(=O)c3ccccc3C2=O)C(=O)N1` (stereo not given), the relative growth is 1.08.

`O=C1O[C@H](c2ccccc2)[C@H](c2ccccc2)N2[C@H]1[C@@H](C(=O)Nc1nc3ccccc3s1)[C@]1(C(=O)Nc3ccc(C#CCCO)cc31)[C@H]2c1ccc(OCCO)cc1`: the relative growth came to 0.782.

`Cc1ccc(S(=O)(=O)N2C[C@H](O)COC[C@@H]3O[C@H](CC(=O)NCc4ccc5c(c4)OCO5)CC[C@H]32)cc1` yielded a relative growth of 1.04.

The molecule `Cc1ccc(S(=O)(=O)N[C@@H]2C=C[C@H](CC(=O)NCCN3CCCCC3)O[C@@H]2CO)cc1` yielded a relative growth of 1.1.

`CN(C)CCCNC(=O)C[C@H]1CC[C@@H](NS(=O)(=O)c2ccccc2)[C@H](CO)O1` had a relative growth of 1.03.

The molecule `COc1ccc([Si](C)(C)[C@H]2[C@H](CCn3cc(CCO)nn3)O[C@@]3(C(=O)N(C)c4ccccc43)[C@@H]2C)cc1` had a relative growth of 0.851.

Molecule `C[C@H](CO)N1C[C@H](C)[C@@H](CN(C)Cc2ccccn2)Oc2cc(C#CCN(C)C)ccc2S1(=O)=O` registered a relative growth of 0.907.

Molecule `CC(O)(P(=O)([O-])O)P(=O)([O-])O.[Na+].[Na+]` had a relative growth of 1.03.

Molecule `Cl.N=C(N)NC(=N)N1CCOCC1` registered a relative growth of 1.13.

The molecule `CCCNC(=O)N[C@@H]1C=C[C@H](CC(=O)N2CCN(C)CC2)O[C@@H]1CO` had a relative growth of 1.05.

`CN(C)Cc1nc(=O)c2ccccc2[nH]1` yielded a relative growth of 0.88.

As to `CN/C(=C\[N+](=O)[O-])NCCSCc1ccc(CN(C)C)o1.Cl`, the relative growth turned out to be 1.08.

`O=C(NO)c1ccc(C(=O)N/N=C/[C@H](O)[C@@H](O)[C@H](O)[C@H](O)CO[C@H]2O[C@H](CO)[C@H](O)[C@H](O)[C@H]2O)cc1` came in with a relative growth of 1.11.

`O=C1OC(CN2CCOCC2)CN1/N=C/c1ccc([N+](=O)[O-])o1` (stereo not given) came in with a relative growth of 0.969.

On to `CC(=O)OCN1CCN(COC(C)=O)C1=O`, for which the relative growth was 1.13.

`Cn1cnc(S(=O)(=O)N2C[C@@H](O)COC[C@H]3O[C@H](CC(=O)N4CCN(c5ccccc5)CC4)CC[C@@H]32)c1`: the relative growth came out at 0.805.

Molecule `O=C(C[C@H]1CC[C@H](NC(=O)CN2CCOCC2)[C@@H](CO)O1)NCc1cccc(F)c1` displayed a relative growth of 0.992.

Molecule `CO[C@@H]1CN(C)C(=O)c2ccc(NS(C)(=O)=O)cc2OC[C@H](C)N(C(=O)CN(C)C)C[C@@H]1C` came in with a relative growth of 1.04.

Take `CCS(=O)(=O)NCC[C@H]1CC[C@H](NS(=O)(=O)c2cccc(F)c2)[C@H](CO)O1`: the relative growth worked out at 1.04.

As for `Cn1c(=O)c2c(NCCc3ccc(S(N)(=O)=O)cc3)ccnc2n(C)c1=O`, the relative growth came to 1.05.

Take `O=C(O)[C@]1(O)C[C@@H](O)[C@@H](O)[C@H](O)C1`: the relative growth worked out at 0.988.

`Cc1ccc(S(=O)(=O)N2C[C@H](O)COC[C@H]3O[C@H](CC(=O)NCc4ccc(Cl)c(Cl)c4)CC[C@@H]32)cc1` returned a relative growth of 1.

Take `COc1cc2c(cc1OC)CN(C(=O)[C@H]1[C@@H]3C(=O)O[C@@H](c4ccccc4)[C@@H](c4ccccc4)N3[C@@H](c3ccccc3OCCO)[C@]13C(=O)Nc1ccc(C#CC4(O)CCCCCC4)cc13)CC2`: the relative growth was found to be 1.15.

`COc1ccc(/C=C/C(=O)c2cc(O)ccc2O)cc1` displayed a relative growth of 1.06.

Turning to `Cc1cccc(Nc2ccccc2C(=O)O)c1C`, the relative growth came out at 1.09.

`CCCCOc1ccc(OCCCN2CCOCC2)cc1.Cl` gave a relative growth of 0.981.

As to `NC(=O)N[C@H]1NC(=O)NC1=O`, the relative growth came to 1.08.

For `CCOC(=O)Cc1nnc(CC(=O)OCC)[nH]1`, the relative growth is 0.98.

`OC[C@@H](O)[C@@H](O)[C@@H](O)[C@@H](O)[C@@H](O)CO` displayed a relative growth of 0.965.

In turn, `O=C(C[C@H]1CC[C@H](NC(=O)Cc2ccccn2)[C@H](CO)O1)NCCCN1CCOCC1` yielded a relative growth of 1.03.

Turning to `NCCCC(O)(P(=O)(O)O)P(=O)(O)O.O.O.O.[Na+]`, the relative growth came to 1.15.

In the case of `O=C(C[C@H]1C=C[C@@H](NC(=O)CN2CCOCC2)[C@H](CO)O1)NCc1cccc(F)c1`, the relative growth is 0.926.

In turn, `COCC#Cc1cnc2c(c1)C(=O)N([C@@H](C)CO)C[C@H](C)[C@@H](CN(C)S(=O)(=O)c1cn(C)cn1)O2` registered a relative growth of 0.929.

As for `C=CCSCC=C`, the relative growth amounted to 0.915.

The molecule `C[C@H](CO)N1C[C@H](C)[C@H](CN(C)Cc2ccccn2)Oc2cc(C#CCN(C)C)ccc2S1(=O)=O` came in with a relative growth of 1.02.

Turning to `O=c1[nH]cnc2[nH]ncc12`, the relative growth is 1.06.

For the molecule `C/C=C1\[C@H]2C=C(C)C[C@]1(N)c1ccc(=O)[nH]c1C2`, the relative growth worked out at 0.98.

Molecule `O=C(Cc1ccccn1)NCC[C@H]1CC[C@H](NC(=O)CN2CCOCC2)[C@H](CO)O1` displayed a relative growth of 0.928.

`C[N+](C)(C)CCO.[Cl-]` had a relative growth of 1.17.

For the molecule `O=C(Oc1cccc2cccnc12)c1ccccc1`, the relative growth was 0.735.

The molecule `C[C@H](CO)N1C[C@H](C)[C@H](CN(C)C(=O)CN(C)C)Oc2cc(C#CCN(C)C)ccc2S1(=O)=O` registered a relative growth of 1.16.

With `CC(=O)OCC(=O)[C@@]1(O)[C@@H](C)CC2C3CCC4=CC(=O)C=C[C@]4(C)[C@@]3(F)[C@@H](O)C[C@@]21C` (stereo not given in full), the relative growth stood at 0.895.

Molecule `CCOc1nc(N)cc(N)c1C#N` yielded a relative growth of 0.988.

In the case of `CN(C)C(=O)C[C@@H]1CC[C@@H](NC(=O)C2CCOCC2)[C@@H](CO)O1`, the relative growth was determined as 1.11.

As to `O=C(O[C@H]1[C@H](O)[C@@H](CO)O[C@H](c2c(O)cc(O)c(C(=O)c3ccc(O)cc3)c2O)[C@H]1OC(=O)c1cc(O)c(O)c(O)c1)c1cc(O)c(O)c(O)c1`, the relative growth stood at 1.05.

As for `COc1ccc(S(=O)(=O)N[C@H]2C=C[C@@H](CC(=O)N3CCN(c4ccccc4)CC3)O[C@@H]2CO)cc1`, the relative growth came out at 0.97.

For `Cc1cc(O)c2c(c1)C(=O)c1cc(O)cc(O)c1C2=O`, the relative growth worked out at 0.854.
